Experiment [1] deals with FcγRIIIb (human) (UniProt O75015). Description: SPR; Fc gamma receptor immobilised on a BIAcore CM5 chip by amine coupling (10 mM sodium acetate pH 5.0); antibody samples serially diluted in HBS-EP pH 7.4; steady state model; result as KD of CT-P6 in-house reference standard / KD of sample x 100. A general note: SPR reads the build-up and loss of mass on a sensor chip optically.

Chains of the proteins cited; added tags and fusions are not shown. Chains listed by the source or under a name are the forms on record and can include a tag or linker. Residues count along the entry.
UniProt O75015, 17-233: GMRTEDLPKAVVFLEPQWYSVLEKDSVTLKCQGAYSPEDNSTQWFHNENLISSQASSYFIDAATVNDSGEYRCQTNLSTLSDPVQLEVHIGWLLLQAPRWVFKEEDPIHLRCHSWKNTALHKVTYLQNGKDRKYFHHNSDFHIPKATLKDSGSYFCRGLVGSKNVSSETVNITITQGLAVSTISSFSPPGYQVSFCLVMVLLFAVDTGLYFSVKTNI
UniProt P02745, 23-245: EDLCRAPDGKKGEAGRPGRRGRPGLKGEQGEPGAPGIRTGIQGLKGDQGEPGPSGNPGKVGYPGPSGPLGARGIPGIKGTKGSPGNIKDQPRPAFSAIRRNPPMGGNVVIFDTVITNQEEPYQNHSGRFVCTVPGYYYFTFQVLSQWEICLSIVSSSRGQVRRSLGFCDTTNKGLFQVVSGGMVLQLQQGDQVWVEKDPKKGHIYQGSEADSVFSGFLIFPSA
C1q complement, UniProt P02746, 28-253: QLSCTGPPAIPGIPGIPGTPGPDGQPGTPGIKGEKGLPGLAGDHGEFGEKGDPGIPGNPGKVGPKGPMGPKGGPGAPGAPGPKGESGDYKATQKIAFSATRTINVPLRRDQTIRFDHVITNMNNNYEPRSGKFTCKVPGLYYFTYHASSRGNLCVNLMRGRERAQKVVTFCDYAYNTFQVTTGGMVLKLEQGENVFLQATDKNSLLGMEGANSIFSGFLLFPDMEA
C1q complement, UniProt P02747, 29-245: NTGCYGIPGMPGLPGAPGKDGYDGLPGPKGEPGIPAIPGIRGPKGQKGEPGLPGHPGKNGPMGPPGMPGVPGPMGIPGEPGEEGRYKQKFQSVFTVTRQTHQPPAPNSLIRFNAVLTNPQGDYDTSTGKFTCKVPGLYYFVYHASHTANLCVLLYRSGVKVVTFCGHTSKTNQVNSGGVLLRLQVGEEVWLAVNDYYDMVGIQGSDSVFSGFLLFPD
EU-Herceptin® (trastuzumab reference product, EU) (human), light, as listed by the source, chain 2 of 2: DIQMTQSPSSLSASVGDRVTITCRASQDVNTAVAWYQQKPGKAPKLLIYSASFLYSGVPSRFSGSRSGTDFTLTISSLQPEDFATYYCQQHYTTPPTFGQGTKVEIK

The target in experiment [2] is EU-Herceptin® (trastuzumab reference product, EU) (human). The experiment in a line: ELISA; antibody samples serially diluted (60,000 to 27.43 ng/mL) and coated on the plate; 10 ug/mL C1q for 2 hours in CaCl2 assay buffer; bound C1q detected with anti-C1q-HRP; result as EC50 of CT-P6 in-house reference standard / EC50 of sample x 100. On the technique in general: An ELISA detects its analyte on a solid surface through an enzyme-linked reagent.

The target in experiment [3] is CT-P6 (biosimilar product of trastuzumab) (human). The description is as above.

On to “US-Herceptin® (trastuzumab reference product, US) (antibody)”, for which, in experiment [1], the relative binding affinity (% of CT-P6 in-house reference standard), mean of lots was found to be 83%.

As to “CT-P6 (biosimilar product of trastuzumab) (antibody)”, the relative binding affinity (% of CT-P6 in-house reference standard), mean of lots in experiment [1] is 97%.

Consider “EU-Herceptin® (trastuzumab reference product, EU) (antibody)”, for which the relative binding affinity (% of CT-P6 in-house reference standard), mean of lots in experiment [1] worked out at 89%.

For “C1q complement (from UniProt P02745 23-245; P02746 28-253; P02747 29-245) (complex)”, the relative C1q binding affinity (% of CT-P6 in-house reference standard, from EC50), mean of lots in experiment [2] amounted to 100%; in experiment [3], 104%.

These data come from article PMC5973688.
